These results are taken from PubChem BioAssay AID1481 (The Scripps Research Institute Molecular Screening Center, 2009).

The chains behind the UniProt entries cited, without tags or fusion partners.
UniProt P55072, whole entry, looked up: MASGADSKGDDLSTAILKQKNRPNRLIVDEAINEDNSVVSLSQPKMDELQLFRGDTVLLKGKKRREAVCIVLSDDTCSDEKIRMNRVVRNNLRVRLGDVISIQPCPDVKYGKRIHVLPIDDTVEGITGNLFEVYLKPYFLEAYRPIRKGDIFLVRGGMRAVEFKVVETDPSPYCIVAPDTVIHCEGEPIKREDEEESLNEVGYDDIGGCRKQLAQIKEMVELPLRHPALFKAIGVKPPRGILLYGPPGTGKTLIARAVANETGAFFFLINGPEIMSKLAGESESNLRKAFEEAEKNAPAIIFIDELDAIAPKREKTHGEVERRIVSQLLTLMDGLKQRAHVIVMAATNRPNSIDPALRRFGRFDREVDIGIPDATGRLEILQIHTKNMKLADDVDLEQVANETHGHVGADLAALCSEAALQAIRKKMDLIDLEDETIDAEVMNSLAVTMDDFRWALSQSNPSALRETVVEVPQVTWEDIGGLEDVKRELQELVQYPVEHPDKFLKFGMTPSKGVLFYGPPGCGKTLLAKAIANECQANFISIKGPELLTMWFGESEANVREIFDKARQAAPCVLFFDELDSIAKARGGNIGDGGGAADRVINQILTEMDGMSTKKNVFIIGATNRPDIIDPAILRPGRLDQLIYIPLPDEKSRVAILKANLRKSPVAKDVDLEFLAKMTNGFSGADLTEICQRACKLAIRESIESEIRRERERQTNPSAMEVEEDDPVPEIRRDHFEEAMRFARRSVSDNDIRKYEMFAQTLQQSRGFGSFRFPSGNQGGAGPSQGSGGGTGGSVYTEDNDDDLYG

The structures appear in SMILES notation. The entries are a selection whose mix differs from that of the whole data set. Calls of active or inactive are those of the source. Rule as the data show it: active = inhibition above about 15%; inactive = the rest.

One may read the inhibition as the drop in the measured response relative to a control, in per cent.

The target in this test is Transitional endoplasmic reticulum ATPase (Homo sapiens) (UniProt P55072). The test is described as follows: inhibitors of human p97 ATPase, primary screen, biochemical (AID 1481).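 Also: 0% = DMSO vehicle and 100% = wells lacking enzyme.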 The settings on record: recombinant p97 ATPase, Kinase-Glo ATP luminescence, 3 h; at 8 µM; active compounds read high. On the technique in general: Kinase-Glo reads ATP consumption through a luciferase reaction.
Regarding `CC(C)/C=N\N=C(\N)N[N+](=O)[O-]`, the inhibition was inactive: 5.63%. In the case of `CN(C(=O)Cc1ccc(Cl)c(Cl)c1)[C@@H]1CCCC[C@H]1N1CCCC1` it was inactive: 5.05%; in that of `O=[As](O)(c1ccccc1Br)c1ccccc1Br`, inactive: 2.75%; in that of `CC1(CBr)Cn2c(nc3ccccc3c2=O)S1` (stereo unspecified), inactive: -0.34%. As for `O=P1(Nc2ccccn2)COc2ccccc2OC1`, the figure is inactive: 2.5%; as for `CCOP(=O)(Nc1ccc(C)cn1)OCC`, inactive: 2.99%. As for `Clc1n[nH]nc1-c1nn[nH][15n]1`, the figure is inactive: -3.56%. For `CC(C)(C)C(=O)NC(Sc1ncccn1)C(Cl)(Cl)Cl` (stereo unspecified), the inhibition was inactive: 2.11%. In the case of `O=P1(Nc2ncccn2)COc2ccccc2OC1` it was inactive: 1.53%; in that of `Nc1cccc([As](=O)(O)c2ccccc2)c1`, inactive: -0.55%. As for `O=P1(Nc2ccc(Br)cn2)COc2ccccc2OC1`, the figure is inactive: 4.01%. In the case of `Cc1ccc(OCC(=O)OC2CN3CCC2CC3)cc1` (stereo unspecified) it was inactive: -2.71%.

Consider `O=[As](O)(c1cccs1)c1cccs1`, for which the inhibition was inactive: 4.62%. For `Cc1nn(-c2ccccc2)c2c1P(=O)(N1CCOCC1)N(C)C(c1ccccc1)=N2` (stereo unspecified), the inhibition was inactive: -3.87%. In the case of `CC1CCC(C(C)C)C(OP(=O)(Nc2ccccn2)c2ccccc2)C1` (stereo unspecified) it was inactive: -5.84%. On to `CN(C)C1(CNC(=O)c2ccc(S(C)(=O)=O)cc2)CCCCC1`, for which the inhibition was inactive: 1.06%. As for `O=C(/C=C/c1ccccc1)OC1CN2CCC1CC2` (stereo unspecified), the figure is inactive: -6.68%; as for `CCOP1(=S)c2c(C)nn(CCC#N)c2N=C(c2ccc(F)cc2)N1C` (stereo unspecified), inactive: 1.81%; as for `O=[N+]([O-])c1ccc2c(c1)nnn2O`, inactive: 4.59%. `CCOP1(=S)c2c(C)nn(CCC#N)c2N=C(c2ccccc2F)N1C` (stereo unspecified): the inhibition is inactive: 0.91%. In the case of `O=P(Nc1nccs1)(c1ccccc1)c1nc2ccccc2s1` (stereo unspecified) it was inactive: 3.24%; in that of `O=P(Nc1nccs1)(Oc1ccccc1)Oc1ccccc1`, inactive: 0.83%. In the case of `CS(=O)(=O)c1cc([N+](=O)[O-])c2no[n+]([O-])c2c1` it was inactive: 7.08%; in that of `Nc1ccccc1[As](=O)(O)c1ccccc1`, inactive: -0.71%; in that of `O=C(O)COc1ccc([As](=O)(O)O)cc1[N+](=O)[O-]`, inactive: 8.13%. In the case of `Cc1ccc(NCCc2c([N+](=O)[O-])cc([N+](=O)[O-])cc2[N+](=O)[O-])cc1` it was inactive: 2.71%; in that of `Nc1cccc2c([As](=O)(O)O)cccc12`, inactive: 6.37%; in that of `CCCOP(=S)(Nc1nc(N)cc(=O)[nH]1)OCCC`, inactive: 8.07%. For the compound `COc1cc(C2NCCC3(OCCO3)C2(C)C)cc(OC)c1OC` (stereo unspecified), the inhibition is inactive: -6.2%.

Turning to `CCOP(=O)(Nc1cccc2ccccc12)OCC`, the inhibition is inactive: -6.56%. For `O=C(OC1CN2CCC1CC2)c1ccc(Cl)cc1` (stereo unspecified), the inhibition is inactive: 10.2%.

As to `COc1cc(C(=O)NCC2(N3CCOCC3)CCCCC2)cc(Cl)c1OC(C)C`, the inhibition is inactive: 0.36%. As for `O=[As](O)(O)c1cccnc1`, the figure is inactive: -4.9%; as for `O=[As](O)(c1cccc(O)c1)c1cccc(O)c1`, inactive: 0.38%; as for `Cc1cccc(OCC(=O)OC2CN3CCC2CC3)c1` (stereo unspecified), inactive: 3.08%. As for `COc1ccc(N/C(=N/P(=O)(N2CCOCC2)N2CCOCC2)N2CCOCC2)cc1`, the figure is inactive: 4.41%; as for `Cc1c2c(nc3ccccc13)SC(C(Cl)Cl)C2` (stereo unspecified), inactive: 6.29%. In the case of `O=C(OC1CN2CCC1CC2)C12CC3CC(CC(C3)C1)C2` (stereo unspecified), the inhibition is inactive: -6.23%. In the case of `Cc1cc(=O)[nH]c(N[N+](=O)[O-])n1` it was inactive: 8.66%.

With `COc1ccc2nc(NP(=O)(c3ccccc3)c3ccccc3)sc2c1`, the inhibition is inactive: 3.13%. As for `COc1cc(I)ccc1[As](=O)(O)O`, the figure is inactive: 2.19%; as for `ClCCSc1nnc(-c2cccnc2)o1`, inactive: 0.78%; as for `CC(C)c1ccc(OP(=O)(Nc2ccccn2)Oc2ccccc2F)cc1` (stereo unspecified), inactive: -3.19%.

Consider `CCN(CC)C(=S)SC(NC=O)C(Cl)(Cl)Cl` (stereo unspecified), for which the inhibition was inactive: 0.18%. In the case of `CC(C)NC(=O)NP(=O)(Oc1ccccc1)Oc1ccccc1` it was inactive: 1.14%; in that of `O=[N+]([O-])c1cc([N+](=O)[O-])c(-c2ccn[nH]2)s1`, inactive: 3.08%; in that of `C[As](=O)(O)c1cccc(C(=O)O)c1`, inactive: 6.35%.

With `O=[As](O)(c1ccc(O)cc1)c1ccccc1O`, the inhibition was inactive: -1.84%.

Consider `Cc1ccc(OP(=O)(Nc2ccc([N+](=O)[O-])cn2)Oc2ccc(C)cc2)cc1`, for which the inhibition is inactive: -0.07%. As for `Cc1ccc2nc3c(c(C)c2c1)CC(C(Cl)Cl)S3` (stereo unspecified), the figure is inactive: -0.59%. As for `CCOC(=O)Nc1cccc([As](=O)(O)O)c1`, the figure is inactive: -2.99%.

In the case of `O=P(Nc1ccccn1)(c1cccc2ccccc12)c1cccc2ccccc12`, the inhibition was inactive: 3.89%. As for `Cc1cc(SC(NC=O)C(Cl)(Cl)Cl)ncn1` (stereo unspecified), the figure is inactive: -0.62%. As for `O=[N+]([O-])c1ccc(Nc2ccc(Oc3ccc([N+](=O)[O-])cc3[N+](=O)[O-])cc2)c([N+](=O)[O-])c1`, the inhibition is inactive: 8.95%. For `CCOC(=O)Nc1ccc([As](=O)(O)O)c(O)c1`, the inhibition is inactive: 1.99%. In the case of `Cc1cc(SC(NC(=O)c2ccccc2)C(Cl)(Cl)Cl)nc(C(C)C)n1` (stereo unspecified) it was inactive: -4.96%; in that of `CCOC(=O)c1ccc(NC(=O)C(C)(CCl)SC)cc1` (stereo unspecified), inactive: 7.11%; in that of `CCC(C)N(CC(C)C)C(=S)SC(NC(C)=O)C(Cl)(Cl)Cl` (stereo unspecified), inactive: -3.78%. As for `COP1(=S)c2c(C)nn(CCC#N)c2N=C(c2ccc(F)cc2)N1C` (stereo unspecified), the figure is inactive: -1.21%; as for `O=C(COc1ccccc1)OC1CN2CCC1CC2` (stereo unspecified), inactive: 2.2%; as for `CCN(/C(=N/P(=O)(N1CCOCC1)N1CCOCC1)N1CCOCC1)c1ccc(OC)cc1`, inactive: -3.24%. Consider `Nc1ccc([As](=O)(O)c2ccc(N)cc2)cc1`, for which the inhibition is inactive: 7.46%. As for `C[N+]1=C2C=CC=CC=C2SC12C([N+](=O)[O-])=CC([N+](=O)[O-])=C[C-]2[N+](=O)[O-]` (stereo unspecified), the figure is active: 24.1%; as for `CC1CCN(C(=O)Oc2c(Cl)cc(Cl)c3cccnc23)CC1`, inactive: -12.5%; as for `CC(C)=N/N=C(\N)N[N+](=O)[O-]`, inactive: 7.05%. As for `CN(C)C(=O)OCCc1n(C)cc[n+]1C`, the figure is inactive: 3.03%.
